Measured values from ChEMBL document CHEMBL5356952, “Design, synthesis, and biological evaluation of deuterated indolepropionic acid derivatives as novel long-acting pan PPARα/γ/δ agonists” (Bioorg Med Chem, 2023).

What was measured:
Format in all cases: functional, organism-based
Mus musculus [1] = assay: Hypolipidemic activity in db/db C57BL/6 mouse assessed as improvement in pathological features at 20 mg/kg, po administered once daily for 30 days by HE staining based assay; details: time 30.0 day
Mus musculus [2] = assay: Hypolipidemic activity in db/db C57BL/6 mouse assessed as reduction in liver NEFA content at 20 mg/kg, po administered once daily for 30 days; details: time 30.0 day
Mus musculus [3] = assay: Hypolipidemic activity in db/db C57BL/6 mouse assessed as improvement in pathological features at 20 mg/kg, po administered once daily for 30 days; details: time 30.0 day
Mus musculus [4] = assay: Hypolipidemic activity in db/db C57BL/6 mouse assessed as reduction in liver TG content at 20 mg/kg, po administered once daily for 30 days; details: time 30.0 day
Mus musculus [5] = assay: Hypolipidemic activity in db/db C57BL/6 mouse assessed as reduction in liver TC content at 20 mg/kg, po administered once daily for 30 days; details: time 30.0 day
Mus musculus [6] = assay: Hypoglycemic activity in ob/ob C57BL/6 mouse assessed as reduction in glucose AUC at 20 mg/kg, po administered once daily for 15 days followed by glucose challenge for 30 mins and measured upto 60 mins post last dose by OGTT; details: time 15.0 day
Mus musculus [7] = assay: Hypolipidemic activity in db/db C57BL/6 mouse assessed as upregulation of UCP1 expression at 20 mg/kg, po administered once daily for 30 days by immunohistochemistry analysis; details: time 30.0 day
Mus musculus [8] = assay: Hypolipidemic activity in db/db C57BL/6 mouse assessed as reduction in plasma total cholesterol content at 20 mg/kg, po administered once daily for 30 days; details: time 30.0 day
Mus musculus [9] = assay: Hypolipidemic activity in db/db C57BL/6 mouse assessed as reduction in plasma TG level at 20 mg/kg, po administered once daily for 30 days; details: time 30.0 day
Mus musculus [10] = assay: Hypolipidemic activity in db/db C57BL/6 mouse assessed as reduction in plasma AST level at 20 mg/kg, po administered once daily for 30 days; details: time 30.0 day
Mus musculus [11] = assay: Hypolipidemic activity in db/db C57BL/6 mouse assessed as reduction in plasma ALT level at 20 mg/kg, po administered once daily for 30 days; details: time 30.0 day
Mus musculus [12] = assay: Downregulation of SREBP-1c gene expression in db/db C57BL/6 mouse at 20 mg/kg, po administered once daily for 30 days by qRT-PCR analysis; details: time 30.0 day
Mus musculus [13] = assay: Downregulation of SCD1 gene expression in db/db C57BL/6 mouse at 20 mg/kg, po administered once daily for 30 days by qRT-PCR analysis; details: time 30.0 day
Mus musculus [14] = assay: Downregulation of ACC1 gene expression in db/db C57BL/6 mouse at 20 mg/kg, po administered once daily for 30 days by qRT-PCR analysis; details: time 30.0 day
Mus musculus [15] = assay: Downregulation of FAS gene expression in db/db C57BL/6 mouse at 20 mg/kg, po administered once daily for 30 days by qRT-PCR analysis; details: time 30.0 day
Mus musculus [16] = assay: Downregulation of ANGPTL3 gene expression in db/db C57BL/6 mouse at 20 mg/kg, po administered once daily for 30 days by qRT-PCR analysis; details: time 30.0 day
Mus musculus [17] = assay: Downregulation of Apo-CIII gene expression in db/db C57BL/6 mouse at 20 mg/kg, po administered once daily for 30 days by qRT-PCR analysis; details: time 30.0 day
Mus musculus [18] = assay: Upregulation of Apo-CII gene expression in db/db C57BL/6 mouse at 20 mg/kg, po administered once daily for 30 days by qRT-PCR analysis; details: time 30.0 day
Mus musculus [19] = assay: Upregulation of ATGL gene expression in db/db C57BL/6 mouse at 20 mg/kg, po administered once daily for 30 days by qRT-PCR analysis; details: time 30.0 day
Mus musculus [20] = assay: Upregulation of CPT1alpha gene expression in db/db C57BL/6 mouse at 20 mg/kg, po administered once daily for 30 days by qRT-PCR analysis; details: time 30.0 day
Mus musculus [21] = assay: Upregulation of LCAD gene expression in db/db C57BL/6 mouse at 20 mg/kg, po administered once daily for 30 days by qRT-PCR analysis; details: time 30.0 day
Mus musculus [22] = assay: Upregulation of ND1 gene expression in db/db C57BL/6 mouse at 20 mg/kg, po administered once daily for 30 days by qRT-PCR analysis; details: time 30.0 day
Mus musculus [23] = assay: Upregulation of GPx1 gene expression in db/db C57BL/6 mouse at 20 mg/kg, po administered once daily for 30 days by qRT-PCR analysis; details: time 30.0 day
Mus musculus [24] = assay: Upregulation of catalase gene expression in db/db C57BL/6 mouse at 20 mg/kg, po administered once daily for 30 days by qRT-PCR analysis; details: time 30.0 day
Mus musculus [25] = assay: Upregulation of SOD1 gene expression in db/db C57BL/6 mouse at 20 mg/kg, po administered once daily for 30 days by qRT-PCR analysis; details: time 30.0 day
Mus musculus [26] = assay: Upregulation of SOD2 gene expression in db/db C57BL/6 mouse at 20 mg/kg, po administered once daily for 30 days by qRT-PCR analysis; details: time 30.0 day
Mus musculus [27] = assay: Anti-NASH activity in HFD/CCl4-induced nonalcoholic steatohepatitis C57BL/6 mouse assessed as reduction in hepatocyte steatosis at 10 to 20 mg/kg, po administered once daily for 4 weeks; details: dose 10-20 mg/kg
Mus musculus [28] = assay: Anti-NASH activity in HFD/CCl4-induced nonalcoholic steatohepatitis C57BL/6 mouse assessed as reduction in liver TC level at 10 to 20 mg/kg, po administered once daily for 4 weeks; details: dose 10-20 mg/kg
Mus musculus [29] = assay: Anti-NASH activity in HFD/CCl4-induced nonalcoholic steatohepatitis C57BL/6 mouse assessed as reduction in liver TG level at 10 to 20 mg/kg, po administered once daily for 4 weeks; details: dose 10-20 mg/kg
Mus musculus [30] = assay: Anti-NASH activity in HFD/CCl4-induced nonalcoholic steatohepatitis C57BL/6 mouse assessed as reduction in balloon like degeneration at 10 to 20 mg/kg, po administered once daily for 4 weeks; details: dose 10-20 mg/kg
Mus musculus [31] = assay: Anti-NASH activity in HFD/CCl4-induced nonalcoholic steatohepatitis C57BL/6 mouse assessed as reduction in inflammatory cell infiltration at 10 to 20 mg/kg, po administered once daily for 4 weeks; details: dose 10-20 mg/kg
Mus musculus [32] = assay: Anti-NASH activity in po dosed HFD/CCl4-induced nonalcoholic steatohepatitis C57BL/6 mouse assessed as reduction in number of fat vacuoles administered once daily for 4 weeks; details: dose 10-20 mg/kg
Mus musculus [33] = assay: Anti-NASH activity in HFD/CCl4-induced nonalcoholic steatohepatitis C57BL/6 mouse assessed as improvement in degree of liver fibrosis at 10 to 20 mg/kg, po administered once daily for 4 weeks by masson staining based assay; details: dose 10-20 mg/kg
Mus musculus [34] = assay: Anti-NASH activity in HFD/CCl4-induced nonalcoholic steatohepatitis C57BL/6 mouse assessed as reduction in area of liver fibrosis at 10 to 20 mg/kg, po administered once daily for 4 weeks by masson staining based assay; details: dose 10-20 mg/kg

Measured: Activity

COc1ccc(S(=O)(=O)n2cc(CCC(=O)O)c3cc(OC)ccc32)cc1 [INDEGLITAZAR]
active: all assays above

The source made the active and inactive calls.
